# Binding of CDR-mutated scFvs to a peptide of the spike HR2 region

Source: Engelhart et al. 2022 (doi:10.1038/s41597-022-01779-4), MIT Lincoln Laboratory and A-Alpha Bio; data file from the FLAb repository.

Target peptide (SARS-CoV-2 spike, HR2 region): PDVDLGDISGINAS

Parent: Ab-91, a human scFv built as VL, the linker GGGGSGGGGSGGGGS, VH. Only the CDRs of the heavy chain vary.
VL: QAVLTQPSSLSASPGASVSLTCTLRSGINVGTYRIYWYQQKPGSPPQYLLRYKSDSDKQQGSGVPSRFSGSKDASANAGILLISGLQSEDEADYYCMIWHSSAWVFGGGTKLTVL
VH: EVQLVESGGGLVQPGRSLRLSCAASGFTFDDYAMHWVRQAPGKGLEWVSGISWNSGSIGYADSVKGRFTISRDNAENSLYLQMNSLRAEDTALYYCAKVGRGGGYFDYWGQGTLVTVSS

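The starting antibody came from a phage panning campaign against this peptide. Variants in AAYL51 differ from the parent at up to three CDR positions; double and triple changes were sampled at random. Affinity was read by AlphaSeq, a pooled yeast mating assay with surface-displayed partners. Pairs that bind mate more often; barcode pairs of the diploids are counted by sequencing. The ratio of observed to expected reads was calibrated, replicate by replicate, on BCL2-family standards whose Kd was known from biolayer interferometry. The assay was run in three technical replicates.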

The parent's heavy chain CDRs are GFTFDDYAMH, GISWNSGSIGYADSVK, VGRGGGYFDY; each variant's own CDRs replace them letter for letter.
Values are log10 of the apparent Kd in nM; lower means stronger binding.
Replicates are averaged; those with no signal do not enter the mean.
Where no diploid with the target was found in any replicate, the entry reads "not detected": below detection, most likely a poor binder, though not proof of it.
As a blank, each scFv also met three strains without target: over library AAYL51, 21% of these pairings were detected, typically at 4.54 and seldom below 3.26.
Parent in this assay: reference entry 1.86, copy in this library 0.88.

CDR-H1	CDR-H2	CDR-H3	log10 Kd (nM), mean	detected
GFTFDDYAMH	WIHWNSGSIGYADSVK	VGRGGGYFCY	not detected	0/3
GGTFDDYAMH	GISTNSGSIGYADSVK	VGRGGGYFDY	2.85	3/3
GFAFDRYAMH	GISWNSGSIGYADSVK	VGRGGGYFDY	0.47	3/3
GFTFDDYNMH	GISWNSGSIGYADSVK	VHRGGGYFDM	4.82	1/3
GFTFDDYAKH	GISWNSGSCGYADSVK	KGRGGGYFDY	not detected	0/3
VFTFDDYAMH	GISWRSGSIGYADSVK	GGRGGGYFDY	4.09	1/3
GFPFDDYAMH	GISWNSGSIGYADIVK	VGRGGVYFDY	not detected	0/3
GFTFDDYNMH	GISWNSGSIGYADSVT	VGRGGGYFDP	4.03	1/3
GFTFDMYAMH	GISWRSGSIYYADSVK	VGRGGGYFDY	4.97	1/3
GFTFGDYAIH	GISWNSGSIGYADSVK	VGEGGGYFDY	4.84	1/3
GWTFDDYAMH	GISWNSGSIGYANSVK	VGRGGGYFDL	1.48	3/3
GFTFDDYAMH	GISWKSGSIGYADSVS	VGRGGGYFDY	not detected	0/3
GFTFDDKAMH	GISWISGSIGYADSVK	VGRCGGYFDY	not detected	0/3
GFTFDDYAMT	GISWNSGSIGYQDSVK	VGRGGGYFWY	4.19	2/3
GFTFDDRACH	GISGNSGSIGYADSVK	VGRGGGYFDY	not detected	0/3
GFQFDDYAMH	YISWNSGSIGYAKSVK	VGRGGGYFDY	5.84	1/3
GFTFDDYAYH	GIWWNSGSISYADSVK	VGRGGGYFDY	not detected	0/3
CFTFDDYAMH	GISWNSGSIGSADSTK	VGRGGGYFDY	not detected	0/3
YFTFDDYAMH	GISWNSGSIGYADSKK	VGPGGGYFDY	not detected	0/3
GFTFDDYAMH	RITWNSGSIGYLDSVK	VGRGGGYFDY	4.55	1/3
GFTFDDYAMH	GISWNQGSIGYFDSVK	VGRVGGYFDY	5.33	2/3
GVTFDDYTMH	WISWNSGSIGYADSVK	VGRGGGYFDY	5.64	1/3
GSTFDDYAMH	GISWNSGSIGYRDEVK	VGRGGGYFDY	not detected	0/3
GFLFNDYAMH	SISWNSGSIGYADSVK	VGRGGGYFDY	not detected	0/3
GLTFDDYAMH	GSSWNSGGIGYADSVK	VGRGGGYFDY	4.62	3/3
GFTFSDYAMH	GISWNSGSIGYADSVK	VGTGGPYFDY	3.96	1/3
GPTFDDYAMH	GISWNSGSVGYADSVK	VGRGGGYFDH	2.87	3/3
GFTFDDYAMH	GISWSSGYPGYADSVK	VGRGGGYFDY	5.37	2/3
GFTFDDYAWH	GISNNSGSIGYADSVK	VGRGGGYFDY	3.80	2/3
GFTEDDYAAH	GISWNSGSIGYADSVK	VGRGGGYFDY	5.53	2/3
GFTFDDYALH	GISWNSGSIGYADNVK	VGRIGGYFDY	5.40	2/3
GFTFDDYAMH	GISWNSGSIGYADSSK	VGRCGGYLDY	2.16	3/3
GFTFDDYAMH	GISWNSGSIGYWDSVK	VGAGGGYFDF	not detected	0/3
GFVFDDYASH	GISWNSGSIGYADSVK	VGWGGGYFDY	4.48	1/3
GFTFDDYAYH	GISWNSGSIIYADSVK	VMRGGGYFDY	4.56	2/3
GFTFDDYFMH	GISWVSGSIGYSDSVK	VGRGGGYFDY	not detected	0/3
GFTFDDYAMH	GISWNSGSIGYADSVK	AGRTGGTFDY	not detected	0/3
GFYFDDYAMH	GISWNSGSIGYADSVK	VGRGGGMFDM	1.37	3/3
GFTFDDYAMH	GISWNSHSIGYADGVK	VGRGGGSFDY	2.92	3/3
LFHSDDYAMH	GISWNSGSIGYADSVK	VGRGGGYFDY	not detected	0/3
GFTFDDYAMH	GIQWNSGSIGYADNVK	VGRGGGYVDY	3.68	2/3
GFTFDDYAMH	GISWNSGSIGYADNVK	VGRGAHYFDY	0.87	3/3
GFTFDDYAMH	GIEWNSGSIGYADSVK	VGSGGGYFDI	4.25	2/3
GFTFDAYAMH	GISWNSGSGGYADSVK	VGRGGGYFDY	4.88	3/3
GFTFDDYAMH	WISWNSGSIGYNDSVK	VGRGGAYFDY	4.92	1/3
GFEFDDYAMH	GKSWNSSSIGYADSVK	VGRGGGYFDY	not detected	0/3
GFTFDDCAMH	GISWTSHSIGYADSVK	VGRGGGYFDY	not detected	0/3
KFTFHDYAMH	GISWNDGSIGYADSVK	VGRGGGYFDY	not detected	0/3
HFTFDDYAMH	GISWNSGSIGYGDSVK	SGRGGGYFDY	5.01	2/3
GFTFDDYWMH	GISWNSGSIGFADSVK	VGRGGTYFDY	not detected	0/3
GFTFDDYAMH	GISWNSGSVGYADSVK	WGRGGGYGDY	5.66	1/3
GFTFDDYAMH	GISWNSGSIGYADSVK	VGYTGQYFDY	not detected	0/3
GFTFDDYAMH	PISWNSGSIGQADSVK	VGRGGGYTDY	not detected	0/3
GFTFDDYEMH	GISWNKGSIGYADSVK	VGRGGGYFVY	4.31	2/3
GFTDDQYAMH	GISWNSGSIGYADSWK	VGRGGGYFDY	not detected	0/3
GFTFDDYAMH	GISWNSGQLGYADHVK	VGRGGGYFDY	1.20	3/3
GFAFDDYACH	GISWTSGSIGYADSVK	VGRGGGYFDY	3.83	1/3
GDLFDDYAMH	GISWNQGSIGYADSVK	VGRGGGYFDY	4.68	3/3
GFTFDQYAMH	GISENSGSIGYASSVK	VGRGGGYFDY	not detected	0/3
GFTFDPYAMH	GISWNSYSIGYADSVK	VGRGGSYFDY	4.76	2/3
GFVFDDYAMH	GISWNSGSIGYADSVK	VERGGGYNDY	3.29	3/3
GFTFDRYAMH	GISWNSGSIGYADSVR	VGRGGGYFGY	0.49	3/3
GWTFDDYAMH	GISWNSFSIGYADSVK	VGRGGGYFDY	2.56	1/3
HFTYDDYAMH	GILWNSGSIGYADSVK	VGRGGGYFDY	not detected	0/3
GFTFDDYAMH	GISWNYGSIIYADSVK	VGRGGGYFDY	not detected	0/3
GFTFDDYAMH	GISWNQGSIGYADSVK	TGRGVGYFDY	3.88	1/3
PFTFDDYCMH	GISWNSCSIGYADSVK	VGRGGGYFDY	not detected	0/3
GFTFDDYAMG	HISWNSGSIGYRDSVK	VGRGGGYFDY	not detected	0/3
GFTFDDYAMH	GISINSGSIGNAMSVK	VGRGGGYFDY	not detected	0/3